# Data taken from BindingDB's records for doi:10.1016/j.bmc.2007.01.011 (Pomona College, 2007).
# Protein sequences, listed by entry. Tags and fused reporters are not part of them. Lines headed by an entry give the natural chain unless they say otherwise; changes in a name come on top.
# UniProt P08254: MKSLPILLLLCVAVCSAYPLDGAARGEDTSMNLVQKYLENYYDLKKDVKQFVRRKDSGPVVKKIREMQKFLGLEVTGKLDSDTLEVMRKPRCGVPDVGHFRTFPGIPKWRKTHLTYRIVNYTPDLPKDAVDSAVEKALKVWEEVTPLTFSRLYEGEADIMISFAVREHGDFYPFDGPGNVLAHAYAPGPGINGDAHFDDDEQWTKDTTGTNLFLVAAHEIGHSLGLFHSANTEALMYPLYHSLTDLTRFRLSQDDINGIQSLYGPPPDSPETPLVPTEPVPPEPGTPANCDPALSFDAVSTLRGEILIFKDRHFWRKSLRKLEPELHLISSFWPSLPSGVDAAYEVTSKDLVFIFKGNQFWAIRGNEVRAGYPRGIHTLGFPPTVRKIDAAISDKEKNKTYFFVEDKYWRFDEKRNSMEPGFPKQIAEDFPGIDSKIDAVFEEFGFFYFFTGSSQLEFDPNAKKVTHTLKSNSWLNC
# pIC50, pKi: −log10 of the molar value.
# What was measured:
# Collagenase 3 = Collagenase 3 (Homo sapiens, UniProt P45452)
# Stromelysin-1 = Stromelysin-1 (Homo sapiens, UniProt P08254)
# Interstitial collagenase = biological target: T1, Interstitial collagenase (Homo sapiens, UniProt P03956)
# T1 sequence (P03956 whole entry): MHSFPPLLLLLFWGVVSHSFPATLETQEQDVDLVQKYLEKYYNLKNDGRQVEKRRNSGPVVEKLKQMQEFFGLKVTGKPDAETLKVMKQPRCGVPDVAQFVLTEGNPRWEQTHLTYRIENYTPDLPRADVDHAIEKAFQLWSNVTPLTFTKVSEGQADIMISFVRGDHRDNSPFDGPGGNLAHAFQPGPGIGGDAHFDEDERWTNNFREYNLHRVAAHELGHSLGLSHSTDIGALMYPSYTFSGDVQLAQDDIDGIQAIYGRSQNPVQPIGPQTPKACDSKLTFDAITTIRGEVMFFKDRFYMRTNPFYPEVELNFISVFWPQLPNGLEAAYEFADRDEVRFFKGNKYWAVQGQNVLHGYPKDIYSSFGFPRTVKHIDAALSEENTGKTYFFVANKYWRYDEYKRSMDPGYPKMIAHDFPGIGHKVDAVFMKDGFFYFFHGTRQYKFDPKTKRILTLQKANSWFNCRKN
smiles,measurement,setting,value
COc1ccc(S(=O)(=O)N2CCN(C(=O)COc3ccccc3)CC2C(=O)NO)cc1 (stereo not drawn) [N-hydroxy-1-(4-methoxyphenylsulfonyl)-4-(2-phenoxyacetyl)piperazine-2-carboxamide],pIC50,Collagenase 3,8.66
CC(C)CN(CC(=O)NO)S(=O)(=O)c1ccc(OCC2CCCCC2)cc1 [2-{[4-(cyclohexylmethoxy)benzene](2-methylpropyl)sulfonamido}-N-hydroxyacetamide],pKi,Stromelysin-1,7.22
CCc1cccc2c(N(Cc3ccccc3)S(=O)(=O)c3ccc(OC)cc3)c(C(=O)NO)cnc12 [4-[Benzyl-(4-methoxy-benzenesulfonyl)-amino]-8-ethyl-quinoline-3-carboxylic acid hydroxyamide],pIC50,Interstitial collagenase,6.72
